target: T1, α-glucosidase (EC 3.2.1.20) from Saccharomyces cerevisiae (Saccharomyces cerevisiae, UniProt P53341); experiment: biochemical; assay type: biochemical; details: not given
T1 construct: purchased Sigma Chemical Co., St. Louis, USA
Experimental: All in vitro α-glucosidase inhibition assays were performed in a 96-well microplate format. The α-glucosidase inhibition assay reported elsewhere was customized to suit the experimental needs of the current work. The assay mixture contained 50 mM sodium phosphate buffer (pH 6.8), 20 mU of α-glucosidase (EC 3.2.1.20) from Saccharomyces cerevisiae (Sigma Chemical Co., St. Louis, USA), and 1.0 mM of p-nitrophenyl-α-D-glucopyranoside (PNP-G) substrate. All target compounds were dissolved in DMSO with the assay mixture containing DMSO at a final concentration of 3%. All compounds were first incubated with the enzyme at 37 °C for 15 min followed by commencement of the enzyme reaction by adding the substrate. The reaction was continuously monitored at 400 nm in SpectraMax Plus 384® microplate reader (Molecular Devices, CA, USA). […] All assays were performed as four individual experiments out of which the values of mean and standard error of mean (SEM) were calculated.
The enzyme kinetics assay procedure was essentially the same as mentioned above except that it was specifically designed for the kinetic work. The experiments included the addition of a range of target compound concentrations and that of the substrate (0.25–2.0 mM). In all experiments, only the linear portion of the enzyme reaction curves was selected for calculating initial velocities in the presence and absence of the target compounds. The type of inhibition was calculated from the Lineweaver-Burk plots which was further confirmed by the Dixon plot using Grafit 7.0.3 software (Erithacus Software Ltd., Staines, UK). The Ki values were also calculated from their respective Dixon plots. All kinetic experiments were conducted in quadruplicate from which mean Ki values and the SEM were calculated.

The chains behind the UniProt entries cited, without tags or fusion partners. Where a name states a change or a piece, a line headed by the entry shows the natural chain unless it says otherwise.
UniProt P53341: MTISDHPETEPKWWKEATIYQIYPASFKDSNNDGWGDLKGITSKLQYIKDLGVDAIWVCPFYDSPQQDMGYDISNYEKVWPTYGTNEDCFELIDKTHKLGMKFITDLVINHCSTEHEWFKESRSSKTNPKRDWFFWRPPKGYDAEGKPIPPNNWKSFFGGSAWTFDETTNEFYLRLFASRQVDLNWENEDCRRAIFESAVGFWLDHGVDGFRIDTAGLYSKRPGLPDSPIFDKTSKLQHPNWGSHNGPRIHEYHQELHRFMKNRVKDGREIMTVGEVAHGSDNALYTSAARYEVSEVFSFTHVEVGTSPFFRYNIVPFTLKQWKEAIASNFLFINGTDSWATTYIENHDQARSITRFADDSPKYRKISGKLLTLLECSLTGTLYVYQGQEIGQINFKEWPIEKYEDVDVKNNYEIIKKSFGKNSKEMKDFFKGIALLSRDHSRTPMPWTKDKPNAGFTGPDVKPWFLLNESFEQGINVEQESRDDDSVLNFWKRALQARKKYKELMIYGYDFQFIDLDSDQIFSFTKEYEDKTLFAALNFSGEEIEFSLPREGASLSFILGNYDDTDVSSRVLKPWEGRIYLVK

| SMILES | Ki [µM] |
| --- | --- |
| CN(C)CCCN1CCN(C(=S)SCC(=O)c2ccc(Cl)cc2Cl)CC1 [PC2] | 12.7 ± 0.34 |
| CN(C)CCCN1CCN(C(=S)SCC(=O)c2ccc(F)cc2F)CC1 [PC3] | 19.3 ± 0.51 |
| CN(C)CCCN1CCN(C(=S)SCCC(=O)c2ccc(F)cc2)CC1 [PC4] | 19.4 ± 0.42 |
| CN(C)CCCN1CCN(C(=S)SCC(=O)c2ccc(F)cc2)CC1 [PC5] | 19.8 ± 0.51 |
| CN(C)CCCN1CCN(C(=S)SCCCC(=O)c2ccccc2)CC1 [PC6] | 20.9 ± 0.28 |
| CN(C)CCCN1CCN(C(=S)SCC(=O)c2ccc(O)c(O)c2)CC1 [PC7] | 21.3 ± 0.51 |
| CN(C)CCCN1CCN(C(=S)SCC(=O)c2ccc(Br)cc2)CC1 [PC8] | 29.4 ± 0.6 |

same assay, conditions: comparison of Ki values

| SMILES | fold less activity than PC1 [fold] |
| --- | --- |
| CN(C)CCCN1CCN(C(=S)SCC(=O)c2ccc(Cl)cc2Cl)CC1 [PC2] | 2 |

Reference: article PMC10390107, “The 4-(dimethylaminoalkyl)piperazine inhibitors of α-glucosidase: allosteric enzyme inhibition and identification of interacting chemical groups” (Turkish Journal of Chemistry, 2022)
